Key:
[1] = target: human ORL-1 receptor (Homo sapiens, UniProt P41146); experiment: Agonist action: inhibition of forskolin-stimulated cAMP elevation in HEK293 cells; format: cell-based; details: HEK293 cells expressing human ORL-1 receptor, forskolin 1 μmol/L
[2] = system: rats; experiment: Phase shift of circadian rhythm by the ORL-1 receptor agonist under a constant dark condition; details: intraperitoneal, administered at CT6 or CT9
[3] = system: rats; experiment: Action of the ORL-1 receptor agonist on re-entrainment of a light-dark cycle; details: 6-hour advancement of the light-dark cycle, administered at ZT6
[4] = system: rats; experiment: Antagonistic action of the ORL-1 receptor antagonist on the phase advancement by the ORL-1 receptor agonist; format: in vivo, rat; details: constant dark, agonist intraperitoneally at CT6, compound D orally 1 hour before

The chains behind the UniProt entries cited, without tags or fusion partners. Where a name states a change or a piece, a line headed by the entry shows the natural chain unless it says otherwise.
UniProt P41146: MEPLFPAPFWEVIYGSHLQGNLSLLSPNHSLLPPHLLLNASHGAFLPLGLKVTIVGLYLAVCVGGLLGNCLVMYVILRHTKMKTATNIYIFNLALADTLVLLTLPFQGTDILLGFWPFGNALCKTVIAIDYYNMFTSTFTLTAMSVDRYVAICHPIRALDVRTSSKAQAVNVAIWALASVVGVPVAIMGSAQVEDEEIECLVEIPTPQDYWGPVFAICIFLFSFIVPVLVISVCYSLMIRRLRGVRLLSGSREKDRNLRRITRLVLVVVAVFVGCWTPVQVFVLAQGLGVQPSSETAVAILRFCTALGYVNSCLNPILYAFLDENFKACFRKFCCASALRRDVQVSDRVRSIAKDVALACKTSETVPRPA

| Compound | inhibition of cAMP production (ORL-1 receptor agonistic activity) [1] | phase shift of body-temperature circadian rhythm [2] | time required for re-entrainment to a new light-dark cycle [3] | phase advancement by the agonist after pre-administration of test compound D [4] |
| --- | --- | --- | --- | --- |
| CNC(=O)Cn1c(=O)n(C2CCN([C@@H]3Cc4cccc5cccc3c45)CC2)c2ccccc21 | inhibited cAMP production depending on concentration | noticeable phase advancing action | about 3 days | – |
| O=C1NCN(c2ccccc2)C12CCN(C1Cc3cccc4cccc1c34)CC2 (racemic) | inhibited cAMP production depending on concentration | noticeable phase advancing action | – | antagonized by pre-administration of the test compound D |
